Experimental data as given in ChEMBL document CHEMBL1142735, “Discovery of a new series of centrally active tricyclic isoxazoles combining serotonin (5-HT) reuptake inhibition with alpha2-adrenoceptor blocking activity” (J Med Chem, 2005).

Amino acid sequences for entries named in this document (tags omitted).
UniProt P08913, whole entry: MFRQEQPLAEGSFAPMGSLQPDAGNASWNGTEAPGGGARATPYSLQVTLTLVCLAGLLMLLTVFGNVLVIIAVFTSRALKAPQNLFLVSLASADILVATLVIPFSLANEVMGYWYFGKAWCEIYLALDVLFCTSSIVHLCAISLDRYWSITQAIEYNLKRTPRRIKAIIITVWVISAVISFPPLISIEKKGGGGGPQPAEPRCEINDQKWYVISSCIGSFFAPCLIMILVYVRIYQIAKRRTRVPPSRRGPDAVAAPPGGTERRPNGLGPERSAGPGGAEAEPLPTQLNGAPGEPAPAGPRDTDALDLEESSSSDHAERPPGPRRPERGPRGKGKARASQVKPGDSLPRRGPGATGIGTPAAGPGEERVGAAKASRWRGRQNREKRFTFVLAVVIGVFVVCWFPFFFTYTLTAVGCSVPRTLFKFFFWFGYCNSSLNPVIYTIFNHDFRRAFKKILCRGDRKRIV

Legend:
[1] = target: T1, Alpha-2A adrenergic receptor (Homo sapiens, UniProt P08913); test: Inhibition of [3H]- rauwolscine binding to human alpha-2A adrenergic receptor
[2] = target: T1, Alpha-2A adrenergic receptor; test: Binding affinity for alpha-2A-adrenergic receptor; type: functional, Rattus norvegicus
[3] = target: T1, Alpha-2A adrenergic receptor; test: Binding affinity for Alpha-2A adrenergic receptor
[4] = Effective dose for antagonism of pCA-induced excitation by subcutaneous administration; settings: Rattus norvegicus

- Ki [1]: 2.5 nM
SMILES: COc1cccc2c1CCC[C@H]2CN(C)CCc1ccc2ccoc2c1

- Ki [2]: 5 nM
SMILES: COc1cc2c(cc1OC)C1=NO[C@@H](CN3CCN(Cc4ccc5ccccc5c4)CC3)[C@@H]1CO2

- Ki [2]: 1.4 nM
SMILES: COc1cc2c(cc1OC)C1=NO[C@@H](CN3CCN(C/C=C(\C)c4ccccc4)CC3)[C@@H]1CO2

SMILES: CN1C[C@@H]2C(=NO[C@H]2CN2CCN(C/C=C/c3ccccc3)CC2)c2ccccc21
- Ki [3]: 1.6 nM
- ED50 [4]: > 10 mg/kg

Each block holds one molecule with its values, some of them ahead of it.
